The text below walks through data of US20080269293A1, “PYRAZOLE DERIVATIVES AS ANTI-PLATELET AND ANTI-THROMBOTIC AGENTS” (Pfizer Inc., priority 2006, published 2008).

Sequences of proteins named here, by UniProt entry; tags and fusion partners are left off.
UniProt P47900, whole entry: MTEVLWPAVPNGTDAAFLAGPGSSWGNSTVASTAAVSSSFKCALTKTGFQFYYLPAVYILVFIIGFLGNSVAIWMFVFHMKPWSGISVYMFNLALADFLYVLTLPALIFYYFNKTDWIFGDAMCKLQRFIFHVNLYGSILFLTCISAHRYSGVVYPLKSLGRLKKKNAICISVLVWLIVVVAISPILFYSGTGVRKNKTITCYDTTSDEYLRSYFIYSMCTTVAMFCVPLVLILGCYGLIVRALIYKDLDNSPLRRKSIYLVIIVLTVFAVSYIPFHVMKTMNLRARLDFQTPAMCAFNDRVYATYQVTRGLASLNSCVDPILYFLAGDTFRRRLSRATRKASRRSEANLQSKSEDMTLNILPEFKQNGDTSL

The experiment deals with platelet P2Y1 receptor (Homo sapiens, UniProt P47900). As to the kind of experiment: P2Y1 receptor binding assay ([β-33P]-2-thiomethyl ADP). As to conditions: read-out: P2Y1 IC50; binding of 0.3 nM [β-33P]-2-thiomethyl ADP, hP2Y1 expressing 132N1 cell membrane, 25° C., 60 minutes.
As for `Cc1cc(Oc2ccccc2NC(=O)Nc2c(C)cc(Br)cc2C)n(-c2ccccc2)n1`, the IC50 (as a rule, the point on the concentration scale where inhibition reaches its midpoint) is over 10 µM.

As for `CC(=O)c1cccc(NC(=O)Nc2ccccc2Oc2cc(C)nn2-c2ccccc2)c1`, the IC50 was over 10 µM.

Regarding `CCc1ccccc1-n1nc(C)cc1Oc1ncccc1NC(=O)Nc1ccc(OC(F)(F)F)cc1`, the IC50 turned out to be 0.039 µM.

As to `Cc1cc(Oc2ccccc2NC(=O)Nc2ccc(F)cc2F)n(-c2ccccc2)n1`, the IC50 is 1.19 µM.

`Cc1cc(Oc2ccccc2NC(=O)Nc2ccccc2Cl)n(-c2ccccc2)n1`: the IC50 was over 10 µM.

With `Cc1cc(Oc2ccccc2NC(=O)Nc2cc(F)cc(F)c2)n(-c2ccccc2)n1`, the IC50 worked out at 1.32 µM.

Consider `Cc1cc(Oc2ccccc2NC(=O)Nc2ccc(F)cc2)n(-c2ccccc2)n1`, for which the IC50 turned out to be 2.74 µM.

As for `COc1ccc(OC)c(NC(=O)Nc2ccccc2Oc2cc(C)nn2-c2ccccc2)c1`, the IC50 is over 10 µM.

Consider `COc1ccc(NC(=O)Nc2ccccc2Oc2cc(C)nn2-c2ccccc2)c(OC)c1`, for which the IC50 was over 10 µM.
